{"source": "patent US7067251B2", "about": "(priority 2000, dated 2006)", "test_system": "MC57G cells", "assay": "Cell mediated lymphocytotoxicity (CML) 51Cr release assay with ova 257–264 specific CTL", "format": "cell-based", "conditions": "MC57G infected at moi 1 or peptide 1 μM, 4 hours at 37° C."}
{"sequence": "SIINFEKL", "values": [{"measurement": "Percent Specific Lysis", "setting": "Effector:Target Ratio 2:1", "result": 54, "unit": "%"}, {"measurement": "Percent Specific Lysis", "setting": "Effector:Target Ratio 10:1", "result": 83, "unit": "%"}]}
